Experimental data published in PubChem BioAssay AID651582 (Sanford-Burnham Center for Chemical Genomics, 2012).
The entries are a selection whose mix differs from that of the whole data set. Calls of active or inactive are those of the source.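 How the source made its calls: active means pattern-corrected inhibition of lipid staining of at least 50% with the nuclear-stain viability signal not falling by more than 50%; inactive means the rest, inconclusive results apart.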

Assay: TAG lipid buildup reduction in H9c2 cells – cell-based, uHTS, fluorescence, primary screen (AID 651582);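 further: 0% = DMSO wells and 100% = triacsin C control wells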
Conditions: Nile Red lipid (TAG) fluorescence, at 12.5 µM, active compounds read high, cells loaded with 200 µM oleic acid

SMILES | inhibition
Cc1ccc(C(=O)NCC2(N(C)C)CCCCC2)o1 | inactive: -3.78%
O=C(NCC1(N2CCCCC2)CCCCC1)c1cncc(Br)c1 | inactive: 22.8%
O=C(NCC1(N2CCOCC2)CCCCC1)c1cc(F)c(F)cc1Cl | inactive: -2.13%
CN(C)c1cccc(C(=O)NCC2(N3CCCCC3)CCCCC2)c1 | inactive: 0.506%
COc1ccc(CN(CCCl)CCCl)cc1Cl | inactive: -12%
CC(C)c1ccc(NC2CCN(C(=O)OC(C)(C)C)CC2)cc1 | inactive: -15.9%
CC(C)c1ccc(C(=O)NCC2(N3CCOCC3)CCCCC2)cc1 | inactive: 4.97%
COc1ccc(NC2CCN(C(=O)OC(C)(C)C)CC2)cc1 | inactive: 5.71%
O=C(NCC1(N2CCOCC2)CCCCC1)c1cc(=O)[nH]c2ccccc12 | inactive: -2.78%
O=C(NCC1(N2CCCCC2)CCCCC1)c1cccc([N+](=O)[O-])c1 | inactive: -1.43%
CSc1ccc(C(=O)NCC2(N3CCOCC3)CCCCC2)cc1 | inactive: -0.442%
N#CC1(Nc2ccccc2)CCN(CCc2ccccc2)CC1 | inactive: 9.73%
CCOC(=O)N1CCC(Nc2ccc(F)cc2)CC1 | inactive: 2.26%
O=P1(N(CCCl)CCCl)SCCCS1 | inactive: -17.4%
CCCCOc1ccc(C(=O)NCC2(N3CCOCC3)CCCCC2)cc1 | inactive: -3.99%
CCOc1ccc(C)cc1CN(CCCl)CCCl | inactive: -1.08%
COc1ccc(Cl)cc1C(=O)NCC1(N2CCOCC2)CCCCC1 | inactive: -5.69%
O=C(NCC1(N2CCCCC2)CCCCC1)c1ccc(Cl)s1 | inactive: 5.93%
N#CC1(Nc2ccccc2)CCN(Cc2ccccc2)CC1 | inactive: 6.13%
O=C(NCC1(N2CCOCC2)CCCCC1)c1cc2ccccc2o1 | inactive: -4.78%
O=C(NCC1(N2CCCCC2)CCCCC1)c1ccc(Cl)nc1 | inactive: -5.73%
Cc1cccc(NC2(C#N)CCN(Cc3ccccc3)CC2)c1 | inactive: 0.183%
O=C(NCC1(N2CCCCC2)CCCCC1)c1cccs1 | inactive: 4.65%

SMILES | inhibition
O=C(NCC1(N2CCCCC2)CCCCC1)c1ccc(=O)[nH]c1 | inactive: -8.22%
COc1ccc(C(=O)NCC2(N3CCCCC3)CCCCC2)c(OC)c1OC | inactive: -0.395%
CN1CCC(Nc2ccc(Cl)cc2)CC1 | inactive: 13.3%
CCC(CO)(C(=O)OC1CN2CCC1CC2)c1ccccc1 (stereo not given) | inactive: 4.36%
COc1cc(OC)cc(C(=O)NCC2(N3CCOCC3)CCCCC2)c1 | inactive: 2.93%
CC(C)(C)OC(=O)N1CCC(Nc2ccccc2)CC1 | inactive: -41.1%
CN1CCC(Nc2ccc(F)c(Cl)c2)CC1 | inactive: 7.63%
CN(C)c1ccc(C(=O)NCC2(N3CCCCC3)CCCCC2)cc1 | inactive: -8.94%
Cn1c(=O)[nH]cc(N(CCCl)CCCl)c1=O | inactive: 4.31%
O=C(NCC1(N2CCCCC2)CCCCC1)c1ccco1 | inactive: 7.33%
Cc1ccccc1NC1(C#N)CCN(Cc2ccccc2)CC1 | inactive: -20.7%
Cc1ccc(NC2(C#N)CCN(Cc3ccccc3)CC2)cc1 | inactive: 3.81%
Cc1ccc(C(=O)NCC2(N3CCCCC3)CCCCC2)o1 | inactive: -7.2%
CC(=O)N(c1ccccc1)C1CCNCC1 | inactive: -8%
Cc1cc(N(CCCl)CCCl)ccc1C=O | inactive: 9.46%
CCCN1CCC(Nc2cc(OC)cc(OC)c2)CC1 | inactive: 9.3%
c1ccc(CN2CCC(Nc3ccccc3)CC2)cc1 | inactive: -17.3%
N#Cc1ccc(C(=O)NCC2(N3CCCCC3)CCCCC2)cc1 | inactive: -2.61%
N/C(=N\O)c1c(N)no[n+]1[O-] | inactive: 8%
COc1ccc(C(=O)NCC2(N3CCOCC3)CCCCC2)cc1OC | inactive: 13.6%
O=C(NCC1(N2CCOCC2)CCCCC1)c1cc(Br)ccc1Cl | inactive: -9.11%
COc1cc(C(=O)NCC2(N3CCOCC3)CCCCC2)cc(OC)c1C | inactive: -6.97%
